Reference: patent US20230287003A1, “BCL6 INHIBITORS” (Cancer Research Technology Limited, priority 2018, published 2023)

Tests used:
[1] = biological target: human BCL6 BTB domain (Trx-6×His-BCL6) / BCOR-AF633 peptide (Homo sapiens (Human), UniProt P41182); assay: HTRF assay; format: binding
[2] = biological target: BCL6-NCOR2(SMRT) corepressor protein-protein interaction (Homo sapiens (Human), UniProt P41182); assay: NanoBRET cell assay; format: cell-based; conditions: HEK293T cells co-transfected with BCL6-nanoLuc and NCOR2-HaloTag, 6 hr incubation; read-out: NanoBRET cell avg pIC50 (converted)
Description: At 20 hr post-transfection, cells were collected, washed with PBS, and exchanged into media containing phenol red-free OptiMEM+4% FBS (Life Technology).

Structure (SMILES) | HTRF avg pIC50 (1 nM) [1] | IC50 [2] [nM]
Cn1c(=O)c2c(c3cc(Nc4ccnc(Cl)c4C#N)ccc31)N[C@H](C1CC1)CCO2 [Example 1e, (S)-2-chloro-4((2-cyclopropyl-7-methyl-6-oxo-1,2,3,4,6,7-hexahydro-[1,4]oxazepino[2,3-c]quinolin-10-yl)amino)nicotinonitrile] | 6.07 | 
Cn1c(=O)c2c(c3cc(Nc4ccnc(Cl)c4C#N)ccc31)N[C@@H](C1CC1)CCO2 [Example 1d, (R)-2-chloro-4((2-cyclopropyl-7-methyl-6-oxo-1,2,3,4,6,7-hexahydro-[1,4]oxazepino[2,3-c]quinolin-10-yl)amino)nicotinonitrile] |  | 204
